Measurements reported in ChEMBL document CHEMBL4364301 (Eur J Med Chem, 2019).

Columns and labels:
Assay type in all cases: functional
DU-145 = assay: Antiproliferative activity against human DU145 cells assessed as reduction in cell growth incubated for 96 hrs by propidium iodide based 2D monolayer assay
How it was run: (§1)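 After 24 h recovery, compound in medium or medium alone (control wells) was added at 10 half-log concentrations from 0.0032 to 100 µM, in triplicate, with at most 0.3% DMSO. After 96 h, wells were PBS-washed, stained with 7 µg/ml PI and 0.1% Triton X-100, and fluorescence read at 530/620 nm. IC50 came from a 4-parameter fit, geometric mean.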

LNCaP = assay: Antiproliferative activity against human LNCAP cells assessed as reduction in cell growth incubated for 96 hrs by propidium iodide based 2D monolayer assay; how it was run: as §1
VCaP = assay: Antiproliferative activity against human VCaP cells assessed as reduction in cell growth incubated for 96 hrs by propidium iodide based 2D monolayer assay
How it was run: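 VCaP cells in RPMI 1640 with 10% FCS at 37 °C, 5% CO2, seeded 4,000–20,000 cells/well and left 24 h before dosing. Compounds from DMSO stocks were diluted in half-log steps in medium, 10 concentrations 0.0032–100 μM, triplicate wells, max 0.3% DMSO. After 96 h, cells were washed, stained with 7 μg/ml propidium iodide plus 0.1% Triton X-100 for 1–2 h at room temperature, and fluorescence read at ex 530/em 620 nm.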

CWR22R = assay: Antiproliferative activity against human 22Rv1 cells assessed as reduction in cell growth incubated for 96 hrs by propidium iodide based 2D monolayer assay; how it was run: as §1

Measured: Activity

CC(O)(COc1ccc(C#N)cc1)C(=O)Nc1ccc(C#N)c(C(F)(F)F)c1 (racemic)
active: DU-145 = Dose-dependent effect | LNCaP Dose-dependent effect | VCaP Dose-dependent effect | CWR22R Dose-dependent effect

CC(O)(CSc1cccc(C(F)(F)F)c1)C(=O)Nc1cccc(S(F)(F)(F)(F)F)c1 (racemic)
active: DU-145 = Dose-dependent effect | LNCaP Dose-dependent effect | VCaP Dose-dependent effect | CWR22R Dose-dependent effect

CC(O)(CSc1ccc(S(F)(F)(F)(F)F)cc1)C(=O)Nc1cccc(S(F)(F)(F)(F)F)c1 (racemic)
active: DU-145 = Dose-dependent effect | LNCaP Dose-dependent effect | VCaP Dose-dependent effect | CWR22R Dose-dependent effect

CC(O)(COc1cccc(OC(F)(F)F)c1)C(=O)Nc1ccc(S(F)(F)(F)(F)F)cc1 (racemic)
active: DU-145 = Dose-dependent effect | LNCaP Dose-dependent effect | VCaP Dose-dependent effect | CWR22R Dose-dependent effect

CC(O)(COc1ccc(S(F)(F)(F)(F)F)cc1)C(=O)Nc1ccc(C#N)cc1C(F)(F)F (racemic)
active: DU-145 = Dose-dependent effect | LNCaP Dose-dependent effect | VCaP Dose-dependent effect | CWR22R Dose-dependent effect

CC(O)(CSc1ccc(OC(F)(F)F)cc1)C(=O)Nc1cccc(S(F)(F)(F)(F)F)c1 (racemic)
active: DU-145 = Dose-dependent effect | LNCaP Dose-dependent effect | VCaP Dose-dependent effect | CWR22R Dose-dependent effect

CC(O)(CSc1ccc(C(F)(F)F)cc1)C(=O)Nc1cccc(S(F)(F)(F)(F)F)c1 (racemic)
active: DU-145 = Dose-dependent effect | LNCaP Dose-dependent effect | VCaP Dose-dependent effect | CWR22R Dose-dependent effect

CC(O)(CSc1ccccc1OC(F)(F)F)C(=O)Nc1cccc(S(F)(F)(F)(F)F)c1 (racemic)
active: DU-145 = Dose-dependent effect | LNCaP Dose-dependent effect | VCaP Dose-dependent effect | CWR22R Dose-dependent effect

CC(O)(COc1ccc(S(F)(F)(F)(F)F)cc1)C(=O)Nc1ccc(S(F)(F)(F)(F)F)cc1 (racemic)
active: DU-145 = Dose-dependent effect | LNCaP Dose-dependent effect | VCaP Dose-dependent effect | CWR22R Dose-dependent effect

CC(O)(COc1ccc(S(F)(F)(F)(F)F)cc1)C(=O)Nc1ccc([N+](=O)[O-])c(C(F)(F)F)c1 (racemic)
active: DU-145 = Dose-dependent effect | LNCaP Dose-dependent effect | VCaP Dose-dependent effect | CWR22R Dose-dependent effect

CC(O)(COc1ccc(S(F)(F)(F)(F)F)cc1)C(=O)Nc1ccc([N+](=O)[O-])cc1C(F)(F)F (racemic)
active: DU-145 = Dose-dependent effect | LNCaP Dose-dependent effect | VCaP Dose-dependent effect | CWR22R Dose-dependent effect

CC(O)(COc1cccc(S(F)(F)(F)(F)F)c1)C(=O)Nc1ccc([N+](=O)[O-])c(C(F)(F)F)c1 (racemic)
active: DU-145 = Dose-dependent effect | LNCaP Dose-dependent effect | VCaP Dose-dependent effect | CWR22R Dose-dependent effect

CC(O)(COc1cccc(S(F)(F)(F)(F)F)c1)C(=O)Nc1ccc([N+](=O)[O-])cc1C(F)(F)F (racemic)
active: DU-145 = Dose-dependent effect | LNCaP Dose-dependent effect | VCaP Dose-dependent effect | CWR22R Dose-dependent effect

CC(O)(COc1ccc(OC(F)(F)F)cc1)C(=O)Nc1ccc(S(F)(F)(F)(F)F)cc1 (racemic)
active: DU-145 = Dose-dependent effect | LNCaP Dose-dependent effect | VCaP Dose-dependent effect | CWR22R Dose-dependent effect

CC(O)(COc1ccc(S(F)(F)(F)(F)F)cc1)C(=O)Nc1ccc(C#N)c(C(F)(F)F)c1 (racemic)
active: DU-145 = Dose-dependent effect | LNCaP Dose-dependent effect | VCaP Dose-dependent effect | CWR22R Dose-dependent effect

CC(O)(COc1cccc(C(F)(F)F)c1)C(=O)Nc1cccc(S(F)(F)(F)(F)F)c1 (racemic)
active: DU-145 = Dose-dependent effect | LNCaP Dose-dependent effect | VCaP Dose-dependent effect | CWR22R Dose-dependent effect

CC(O)(COc1cccc(S(F)(F)(F)(F)F)c1)C(=O)Nc1ccc(S(F)(F)(F)(F)F)cc1 (racemic)
active: DU-145 = Dose-dependent effect | LNCaP Dose-dependent effect | VCaP Dose-dependent effect | CWR22R Dose-dependent effect

CC(O)(COc1ccc(S(F)(F)(F)(F)F)cc1)C(=O)Nc1cccc(S(F)(F)(F)(F)F)c1 (racemic)
active: DU-145 = Dose-dependent effect | LNCaP Dose-dependent effect | VCaP Dose-dependent effect | CWR22R Dose-dependent effect

CC(O)(COc1ccccc1OC(F)(F)F)C(=O)Nc1ccc(S(F)(F)(F)(F)F)cc1 (racemic)
active: DU-145 = Dose-dependent effect | LNCaP Dose-dependent effect | VCaP Dose-dependent effect | CWR22R Dose-dependent effect

CC(O)(COc1ccc(C#N)cc1)C(=O)Nc1ccc(S(F)(F)(F)(F)F)cc1 (racemic)
active: DU-145 = Dose-dependent effect | LNCaP Dose-dependent effect | VCaP Dose-dependent effect | CWR22R Dose-dependent effect

CC(O)(COc1cccc(S(F)(F)(F)(F)F)c1)C(=O)Nc1ccc(C#N)c(C(F)(F)F)c1 (racemic)
active: DU-145 = Dose-dependent effect | LNCaP Dose-dependent effect | VCaP Dose-dependent effect | CWR22R Dose-dependent effect

CC(O)(COc1cccc(C(F)(F)F)c1)C(=O)Nc1ccc(S(F)(F)(F)(F)F)cc1 (racemic)
active: DU-145 = Dose-dependent effect | LNCaP Dose-dependent effect | VCaP Dose-dependent effect | CWR22R Dose-dependent effect

CC(O)(COc1cc(C(F)(F)F)cc(C(F)(F)F)c1)C(=O)Nc1ccc(S(F)(F)(F)(F)F)cc1 (racemic)
active: DU-145 = Dose-dependent effect | LNCaP Dose-dependent effect | VCaP Dose-dependent effect | CWR22R Dose-dependent effect

CC(O)(CSc1cccc(OC(F)(F)F)c1)C(=O)Nc1cccc(S(F)(F)(F)(F)F)c1 (racemic)
active: DU-145 = Dose-dependent effect | LNCaP Dose-dependent effect | VCaP Dose-dependent effect | CWR22R Dose-dependent effect

CC(O)(COc1ccc(C(F)(F)F)cc1)C(=O)Nc1cccc(S(F)(F)(F)(F)F)c1 (racemic)
active: DU-145 = Dose-dependent effect | LNCaP Dose-dependent effect | VCaP Dose-dependent effect | CWR22R Dose-dependent effect

CC(O)(COc1ccc(C#N)c(F)c1)C(=O)Nc1ccc(S(F)(F)(F)(F)F)cc1 (racemic)
active: DU-145 = Dose-dependent effect | LNCaP Dose-dependent effect | VCaP Dose-dependent effect | CWR22R Dose-dependent effect

CC(O)(CSc1ccccc1C(F)(F)F)C(=O)Nc1cccc(S(F)(F)(F)(F)F)c1 (racemic)
active: DU-145 = Dose-dependent effect | LNCaP Dose-dependent effect | VCaP Dose-dependent effect | CWR22R Dose-dependent effect

CC(O)(CSc1cccc(S(F)(F)(F)(F)F)c1)C(=O)Nc1cccc(S(F)(F)(F)(F)F)c1 (racemic)
active: DU-145 = Dose-dependent effect | LNCaP Dose-dependent effect | VCaP Dose-dependent effect | CWR22R Dose-dependent effect

CC(O)(COc1cccc(S(F)(F)(F)(F)F)c1)C(=O)Nc1cccc(S(F)(F)(F)(F)F)c1 (racemic)
active: DU-145 = Dose-dependent effect | LNCaP Dose-dependent effect | VCaP Dose-dependent effect | CWR22R Dose-dependent effect

CC(O)(COc1ccccc1C(F)(F)F)C(=O)Nc1ccc(S(F)(F)(F)(F)F)cc1 (racemic)
active: DU-145 = Dose-dependent effect | LNCaP Dose-dependent effect | VCaP Dose-dependent effect | CWR22R Dose-dependent effect

CC(O)(COc1cccc(S(F)(F)(F)(F)F)c1)C(=O)Nc1ccc(C#N)cc1C(F)(F)F (racemic)
active: DU-145 = Dose-dependent effect | LNCaP Dose-dependent effect | VCaP Dose-dependent effect | CWR22R Dose-dependent effect

CC(O)(COc1ccc(C#N)cc1C(F)(F)F)C(=O)Nc1ccc(S(F)(F)(F)(F)F)cc1 (racemic)
active: DU-145 = Dose-dependent effect | LNCaP Dose-dependent effect | VCaP Dose-dependent effect | CWR22R Dose-dependent effect

CC(O)(CSc1ccc(F)cc1)C(=O)Nc1cccc(S(F)(F)(F)(F)F)c1 (racemic)
active: DU-145 = Dose-dependent effect | LNCaP Dose-dependent effect | VCaP Dose-dependent effect | CWR22R Dose-dependent effect
